According to EP0078757A1, “Imines of 2-(4-phenyl-piperazinylethyl) anilines, process for their preparation and their use in medicine” (CORTIAL S.A., priority 1981, dated 1983):

Legend:
[1] = tested on: anaphylaxie passive cutanée; experiment: Passive cutaneous anaphylaxis test in rats; assay type: in vivo, rats mâles Sprague Dawley; conditions: rat, given 10 min before challenge, decrease of Evans blue in the papule, limits in brackets, tested form: citrate; for DE 50 voie ip: intraperitoneal route
Protocol: L'activité antiallergique a été déterminée dans le test de l'anaphylaxie passive cutanée de la façon suivante. On administre à des rats mâles Sprague Dawley par voie intradermique 0,1 ml de sérum riche en IgE. Ce sérum a été fabriqué en sensibilisant des rats Sprague-Dawley par une injection ip d'ovalbumine et de suspension de Bordetella pertusis suivie 20 j après par une nouvelle injection d'ovalbumine. 24 heures après administration du sérum on injecte par voie iv 0,5 ml d'une solution contenant 8,25 mg/kg d'ovalbumine et 26,4 mg/kg de bleu d'Evans dans un tampon pH 7,05. Au bout de 30 mn les animaux sont sacrifiés; chaque papule est découpée, pesée et mise à incuber pendant 4 j à 37°C dans 15 g de formamide. La quantité de bleu d'Evans contenue dans chaque papule est déterminée par la mesure de la densité optique du mélange. Le produit à tester est administré par voie orale ou intrapéritonéale en suspension homogène en présence de tween 80, 10 mn avant l'injection déclenchante. Son activité est appréciée par le pourcentage de diminution de la quantité de bleu d'Evans ayant diffusé dans la papule. Les DE 50 de certains produits de la présente invention sont indiquées dans le tableau V.

[2] = tested on: souris Swiss; experiment: Oral (intragastric) toxicity, mortality in mice; conditions: mouse, tested form: citrate; for DL 50: Bliss method, limits in brackets; for % de mortalité en fonction de la dose exprimée en mg/kg: solvent as in the source
[3] = tested on: souris Swiss; experiment: Intraperitoneal toxicity, mortality in mice; conditions: mouse, in tween, Bliss method, limits in brackets, tested form: citrate
[4] = tested on: motilité chez la souris; experiment: Motility (actimeter) in mice, sedative effect; assay type: in vivo; conditions: ip route, mouse, Litchfield Wilcoxon method, tested form: citrate
From the text: L'effet des substances sur la motilité est appréciée chez la souris en utilisant un actimètre. Les animaux sont placés dans la cage d'activométrie et à partir du nombre de déplacements enregistrés par l'appareil,on obtient pour chaque dose considérée le pourcentage de l'effet observé par rapport au lot témoin. Ces pourcentages sont reportés sur un papier à l'échelle log-probit et la méthode de Litchfield Wilcoxon permet de calculer la dose efficace 50 sédative. Le tableau VI donne les DE 50 sédatives pour un certain nombre de produits faisant l'objet de l'invention.

| Structure (SMILES) | DE 50 voie po [1] | DL 50 [2] | % de mortalité en fonction de la dose exprimée en mg/kg ([2]; dose 500 mg/kg) | % de mortalité en fonction de la dose exprimée en mg/kg ([2]; dose 750 mg/kg) | % de mortalité en fonction de la dose exprimée en mg/kg ([2]; dose 1000 mg/kg) | DL 50 [3] | DE 50 sédation [4] | DE 50 voie ip [1] | % de mortalité en fonction de la dose exprimée en mg/kg ([2]; dose 300 mg/kg) |
| --- | --- | --- | --- | --- | --- | --- | --- | --- | --- |
| Cc1ccc(C=Nc2ccccc2CCN2CCN(c3ccccc3C)CC2)cc1 | 4,5 (3,2 - 6,3) mg/kg | 733 (623 - 863) mg/kg | 10% | 70% | 80% | 330 ( 292 - 373) mg/kg | 12 mg/kg | – | – |
| Clc1ccc(N2CCN(CCc3ccccc3N=Cc3cccnc3)CC2)cc1 | 5 mg/kg | 584 (536 - 637) mg/kg | 20% | 90% | 100% | 187 (165 - 212) mg/kg | 12 mg/kg | – | – |
| COc1ccccc1N1CCN(CCc2ccccc2N=Cc2cccnc2)CC1 | 13,3 (9,3 - 18,6) mg/kg | 427 (384 - 474) mg/kg | 75% | – | – | – | 9 mg/kg | 5,65 (3,24 - 9,77) mg/kg | 20% |
| Fc1ccc(N2CCN(CCc3ccccc3N=Cc3cccnc3)CC2)cc1 | 5,7 (3,7 - 8,5) mg/kg | – | 0% | 20% | 30% | – | 4 mg/kg | – | – |
| Fc1ccc(N2CCN(CCc3ccccc3N=Cc3ccccc3)CC2)cc1 | 9 mg/kg | – | – | – | – | 288 (260 - 318) mg/kg | 6 mg/kg | – | – |
| Cc1ccc(C=Nc2ccccc2CCN2CCN(c3ccccc3)CC2)cc1 | 8,0 (5,62 - 11,22) mg/kg | 792 (746 - 839) mg/kg | 0% | 30% | 100% | 254 (236 - 274) mg/kg | 7 mg/kg | 6,79 (4,79 - 9,55) mg/kg | – |
| COc1cc(C=Nc2ccccc2CCN2CCN(c3ccc(Cl)cc3)CC2)cc(OC)c1OC | 8,76 (4,07 - 18,62) mg/kg | 666 (580 - 765) mg/kg | 10% | 70% | 80% | – | – | – | – |
| FC(F)(F)c1cccc(N2CCN(CCc3ccccc3N=Cc3ccccc3)CC2)c1 | 27,5 (20,8 - 36,3) mg/kg | – | 0% | 0% | 30% | – | – | – | – |
| Cc1ccccc1N1CCN(CCc2ccccc2N=Cc2cccnc2)CC1 | 3,3 (1,35 - 8,13) mg/kg | 676 (578 - 791) mg/kg | 20% | 50% | 100% | 185 ( 166 - 207) mg/kg | 7 mg/kg | – | – |
| COc1ccccc1N1CCN(CCc2ccccc2N=Cc2ccc(C)cc2)CC1 | 7,12(4,37 - 11,48) mg/kg | 523 (440 - 621) mg/kg | 60% | 75% | 90% | – | 14 mg/kg | 3,85 (2,95 - 5,13) mg/kg | – |
| FC(F)(F)c1cccc(N2CCN(CCc3ccccc3N=Cc3cccnc3)CC2)c1 | – | – | – | – | – | – | 20 mg/kg | – | 0% |
| COc1cc(C=Nc2ccccc2CCN2CCN(c3ccc(F)cc3)CC2)cc(OC)c1OC | 7,82 (3,89 - 15,49) mg/kg | 864 (807 - 926) mg/kg | 0% | 30% | 90% | – | – | – | – |
| FC(F)(F)c1cccc(N2CCN(CCc3ccccc3N=Cc3ccco3)CC2)c1 | 43 (32,3 - 56,2) mg/kg | – | 0% | 20% | 50% | – | – | – | – |
| Fc1ccc(N2CCN(CCc3ccccc3N=Cc3cccs3)CC2)cc1 | 6,29 (4,79 - 8,31) mg/kg | – | 0% | – | 0% | – | – | – | – |
| Clc1ccc(N2CCN(CCc3ccccc3N=Cc3cccs3)CC2)cc1 | 17,09 (9,77 - 29,51) mg/kg | – | 0% | – | 0% | – | – | – | – |
| Cc1ccccc1N1CCN(CCc2ccccc2N=Cc2ccco2)CC1 | 5,34 (3,31 - 8,71) mg/kg | 562 (489 - 644) mg/kg | 50% | 70% | 100% | – | – | – | – |
